{
  "source": "paper PMC6800033",
  "about": "(Analytical biochemistry, 2019)",
  "origin": "cited, not measured here",
  "target": "TEAD",
  "conditions": "read-out: Kd by ITC; cited from earlier work",
  "note": "pKd: −log10 of the molar value.",
  "data": [
    {"smiles": "CSCC[C@H](NC(=O)[C@@H](NC(=O)[C@H](C)NC(=O)[C@H](CC(N)=O)NC(=O)[C@H](Cc1ccccc1)NC(=O)[C@H](CC(C)C)NC(=O)[C@H](C)NC(=O)[C@H](CCC(=O)O)NC(=O)[C@H](CC(C)C)NC(=O)[C@H](CC(=O)O)NC(=O)[C@@H](NC(=O)[C@@H](N)CCC(=O)O)[C@@H](C)O)C(C)C)C(=O)N[C@@H](CC(N)=O)C(=O)N1CCC[C@H]1C(=O)N[C@@H](CCCCN)C(=O)N[C@H](C(=O)N[C@@H](C)C(=O)N[C@@H](CC(N)=O)C(=O)N[C@H](C(=O)N1CCC[C@H]1C(=O)N[C@@H](CCC(N)=O)C(=O)N[C@H](C(=O)N[C@H](C(=O)N1CCC[C@H]1C(=O)N[C@@H](CCSC)C(=O)N[C@@H](CCCNC(=N)N)C(=O)N[C@@H](CC(C)C)C(=O)N[C@@H](CCCNC(=N)N)C(=O)N[C@@H](CCCCN)C(=O)N[C@@H](CC(C)C)C(=O)N1CCC[C@H]1C(=O)N[C@@H](CC(=O)O)C(=O)N[C@@H](CO)C(=O)N[C@@H](Cc1ccccc1)C(=O)N[C@@H](Cc1ccccc1)C(=O)N[C@@H](CCCCN)C(=O)N1CCC[C@H]1C(=O)N1CCC[C@H]1C(=O)N[C@@H](CCC(=O)O)C(=O)O)C(C)C)[C@@H](C)O)C(C)C)[C@@H](C)O", "note": "[YAP^62–100]", "values": [
      {"measurement": "pKd", "value": 7.02}
    ]}
  ]
}
